Screening results: PubChem, National Center for Advancing Translational Sciences (NCATS)
uPA generation: inhibitors of cell surface uPA generation | Potency, µM (series often up to 38.3 µM), without a hit: at the highest dose activity change, negative = inhibition, usual class: inhibitors | cell surface uPA generation assay, qHTS | 0.31% of 330,000 active | AID 540303; active = well fitted inhibition curve with a large enough effect; inconclusive = small, poorly fitted or top-dose-only effect; inactive = no such curve, though single readings can be large or run the other way; tested in mouse RAW 264.7 cells; note: potency is the fitted concentration of half-maximal effect; % is set by controls: 0 for no effect and ±100 for the full control effect; nearly all actives have a fitted effect of over 55% in size
DT40 TDP1 no CPT: qHTS for Inhibitors of human tyrosyl-DNA phosphodiesterase 1 (TDP1): qHTS in cells in absence of CPT; DT40 Tdp1-/- hTDP1 cells, no CPT, ATP luminescence, 48 h; Potency, µM (series often up to 46.2 µM), for inactives: at the top dose activity change, negative = growth inhibition, actives largely listed as inhibitors; AID 686978, 2013; 15% of 420,000 active; note: potency is the fitted concentration of half-maximal effect; % is set by controls: 0 for no effect and ±100 for the full control effect; nearly all actives have a fitted effect of over 55% in size
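Readout: luminescence from CellTiter-Glo after 30 min in the dark at RT. Cells: DT40 Tdp1-/- with stable hTDP1, 400/well. Exposure: compounds alone, ≥48 hr, 37 °C.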
DT40 TDP1 CPT: DT40-hTDP1 cell growth loss with CPT | chicken DT40 Tdp1-/-;hTDP1 cells + 20 nM CPT, ATP luminescence, 48 h | AID 686979 | Potency, µM (top dose mostly 46.2 µM), for the others: top-dose activity change, negative = growth inhibition, actives largely listed as inhibitors | 12% of 420,000 active; note: potency is the fitted concentration of half-maximal effect; % is set by controls: 0 for no effect and ±100 for the full control effect; nearly all actives have a fitted effect of over 55% in size
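Chicken DT40 Tdp1-/- cells stably complemented with human TDP1 were seeded at 400 cells/well in medium containing 20 nM camptothecin, exposed to pin-transferred compounds, and grown at 37 °C for at least 48 hr. Viability was read as ATP luminescence.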
miR-21 reporter: miR-21 reporter, rising signal | Potency, µM (highest dose often 38.3 µM), for inactives: at the highest dose reporter change, positive = more light | 340,000 tested, under 10 active | HeLa miR-21 FLuc reporter, luciferase, 48 h; active = well fitted rising curve with a large enough effect; inconclusive = small, poorly fitted or top-dose-only effect; inactive = no such curve, though single readings can be large or run the other way;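 note: % of control where 0% means no effect; miR-21 action dims this reporter so a rising signal means less miR-21 action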
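Luminescence from a firefly luciferase reporter carrying a miR-21 binding site downstream, stably expressed under a CMV promoter in HeLa cells that make miR-21 endogenously, reports miRNA modulation after 48 h compound exposure up to approximately 40uM final.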
TDP1 block: blocks human tyrosyl-DNA phosphodiesterase 1; Q9NUW8; recombinant TDP1, AlphaScreen DNA substrate cleavage; Potency, µM (series often up to 130 µM), for the others: at the top dose activity change, negative = inhibition, most hits filed as inhibitors; 0.28% of 350,000 active; note: potency is the fitted concentration of half-maximal effect; % is set by controls: 0 for no effect and ±100 for the full control effect; nearly all actives have a fitted effect of over 40% in size
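Enzyme-compound mixtures sat 15 min at room temperature, followed by a 5 min reaction with 15 nM final substrate and 10 min with AlphaScreen beads. Recombinant human Tdp1 was used at 1 nM final.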
An asterisk follows results filed as active; ? = inconclusive; · = no result given. An excerpt weighted towards active compounds, which were near 16% of everything screened. Unless noted, calls come from the whole dose curve; as a rule, active = well fitted curve in the direction sought with a large enough effect; inconclusive = small, poorly fitted or top-dose-only effect, or another doubt; inactive = no such curve, though single readings can be large; an effect the other way counts as inactive or inconclusive.

SMILES | uPA generation | DT40 TDP1 no CPT | DT40 TDP1 CPT | miR-21 reporter | TDP1 block
O=C1NC2(CCCCC2)C(=O)N1/N=C/c1ccc(O)cc1O | 0.6% | ? | ? | -13.0% | -3.8%
O=C(CSc1nc2ccccc2[nH]1)NCc1ccc2c(c1)OCO2 | -0.6% | -19.3% | -28.1% | -6.8% | -14.8%
Clc1ccc(OCCOCCOc2cccc3cccnc23)c(Br)c1 | 2.5% | ? | 23.1µM* | -19.5% | 0.0%
Brc1ccccc1OCCOCCOc1cccc2cccnc12 | 5.9% | ? | ? | -10.5% | 2.9%
Brc1ccc(OCCOCCOc2cccc3cccnc23)cc1 | 5.9% | 23.1µM* | ? | · | ·
Cc1cc(C)c2cc(CN(Cc3cccnc3)C(=O)c3ccc(F)cc3)c(Cl)nc2c1 | -7.7% | 14.6µM* | 18.4µM* | 5.8% | 6.2%
Cc1cccc2cc(CN(Cc3cccnc3)C(=O)c3ccccc3F)c(Cl)nc12 | -4.4% | ? | ? | 4.5% | 2.6%
Cc1ccccc1-n1c(SCC(=O)NC2CC2)nc2ccccc2c1=O | · | 16.4µM* | ? | · | ·
COc1ccc(C)cc1-n1c(SCC(=O)Nc2cccc(C(=O)O)c2)nc2ccccc2c1=O | 8.3% | 0.3% | 4.1% | 0.7% | 2.5%
COc1ccc(C)cc1-n1c(SCC(=O)NC2CC2)nc2ccccc2c1=O | 0.3% | ? | 18.4µM* | · | 2.0%
Cc1cccc(-n2c(SCC(=O)NCC3CCCO3)nc3ccccc3c2=O)c1C (configuration not stated) | ? | 23.1µM* | 14.6µM* | · | 2.1%
Cc1ccccc1-n1c(SCC(N)=O)nc2sc(-c3ccccc3)cc2c1=O | -0.1% | 18.4µM* | ? | -6.2% | 2.0%
CC(=O)N1CCOc2ccc(S(=O)(=O)N3CCC(C(=O)Nc4ccc(C)cc4C)CC3)cc21 | -5.7% | 2.7% | -14.2% | 1.9% | 3.1%
CCCOC(=O)C(C)n1nnc2sc(-c3ccccc3)cc2c1=O (configuration not stated) | · | ? | ? | 1.4% | 7.0%
CCOC(=O)C(CC)n1nnc2sc(-c3ccccc3)cc2c1=O (configuration not stated) | · | 14.6µM* | 25.9µM* | -15.2% | -9.3%
Cc1ccccc1N1CC(C(=O)Nc2nnc(SCC(=O)Nc3nccs3)s2)CC1=O (configuration not stated) | 5.5% | -0.9% | -6.1% | -3.8% | 3.4%
Cc1cccc2sc(N(CCCN(C)C)C(=O)c3nc4ccccc4s3)nc12 | 0.9% | 13µM* | 13µM* | -12.7% | -3.4%
Cc1ccc2sc(N(CCCN(C)C)C(=O)c3nc4ccccc4s3)nc2c1C | -3.1% | 6.51µM* | 13µM* | -14.4% | 4.8%
CCCC(=O)Nc1cc(S(=O)(=O)N2CCOCC2)ccc1N1CCCCC1 | 7.3% | ? | -28.9% | · | 2.2%
Cc1nc(NS(=O)(=O)c2ccccc2)sc1C(=O)N/N=C/c1ccccc1 | 3.6% | -10.3% | -5.8% | -11.5% | 5.7%
COc1ccc(NC(=O)CC23CC4CC(C2)CC(n2nnc(C)n2)(C4)C3)cc1 | 1.9% | ? | -16.0% | 0.7% | 7.9%
CC(=O)c1ccc(NC(=O)CC23CC4CC(C2)CC(n2nnc(C)n2)(C4)C3)cc1 | -5.0% | 13µM* | ? | -3.0% | 0.0%
CC(O)CNC(=O)C(=O)Nc1c2c(nn1-c1ccc(Cl)cc1)CSC2 (configuration not stated) | · | -2.1% | 0.1% | -1.5% | 5.2%
CC(=O)NC(C)(c1ccccc1)c1nc(-c2cncnc2)cs1 (configuration not stated) | · | -5.2% | -11.4% | · | ·
CC(=O)NC(C)(c1ccccc1)c1nc(-c2cccc(C(F)(F)F)c2)cs1 (configuration not stated) | · | 14.6µM* | ? | · | ·
CC(=O)Nc1cccc(-c2csc(C(C)(NC(C)=O)c3ccccc3)n2)c1 (configuration not stated) | · | ? | 25.9µM* | · | ·
COC(=O)N(NC(=O)C(O)(c1ccccc1)c1ccccc1)c1ccccc1 | 2.2% | ? | -24.0% | 2.3% | 0.0%

Compound profiles (already shown). Values in the order: uPA generation, DT40 TDP1 no CPT, DT40 TDP1 CPT, miR-21 reporter, TDP1 block
CC(=O)Nc1cccc(-c2csc(C(C)(NC(C)=O)c3ccccc3)n2)c1 (configuration not stated) reads ·, ?, 25.9µM*, ·, ·
COC(=O)N(NC(=O)C(O)(c1ccccc1)c1ccccc1)c1ccccc1 reads 2.2%, ?, -24.0%, 2.3%, 0.0%

Taken from above:
CC(=O)Nc1cccc(-c2csc(C(C)(NC(C)=O)c3ccccc3)n2)c1 (configuration not stated) – DT40 TDP1 CPT: 25.9µM*
CC(O)CNC(=O)C(=O)Nc1c2c(nn1-c1ccc(Cl)cc1)CSC2 (configuration not stated) – DT40 TDP1 CPT: 0.1%
